Experimental data from US12201629B2 (priority 2017, dated 2025).

Tests used:
rats [1] = test: Example 3A: analgesia effects in rats (FIGS. 23, 26, 29); details: sc; oxycodone 8, fentanyl 0.5, hydromorphone 10 mg/kg
rats [2] = test: Example 3A: respiratory depression, arterial blood gas analysis; format: in vivo, rat
[3] = opioid alone sc, 1 hour post-dosing, hydromorphone HCl 10, fentanyl citrate 0.5, oxycodone HCl 8, morphine sulfate 30 mg/kg
[4] = rats, sc, oxycodone 8, fentanyl 0.5, hydromorphone 10 mg/kg

COc1ccc2c3c1O[C@H]1C(=O)CC[C@@]4(O)[C@@H](C2)N(C)CC[C@]314.Cl
analgesia of opioid alone in the rat (rats [1]): full analgesia
arterial blood pH (MODEL) (rats [2]; [3]): 7.266
pCO2 (MODEL) (rats [2]; [3]): 60.5
pO2 (MODEL) (rats [2]; [3]): 67.78
sO2% (MODEL) (rats [2]; [3]): 87.38%
pCO2 (MODEL + BUPRENORPHINE) (rats [2]; opioid sc + buprenorphine 0.5 mg/kg sc, 1 hour post-dosing, hydromorphone HCl 10, fentanyl citrate 0.5, oxycodone HCl 8 mg/kg, head range (37.9-56.4)): 38.408
pO2 (MODEL + BUPRENORPHINE) (rats [2]; opioid sc + buprenorphine 0.5 mg/kg sc, 1 hour post-dosing, hydromorphone HCl 10, fentanyl citrate 0.5, oxycodone HCl 8 mg/kg, head range (80-109)): 79.93
sO2% (MODEL + BUPRENORPHINE) (rats [2]; opioid sc + buprenorphine 0.5 mg/kg sc, 1 hour post-dosing, hydromorphone HCl 10, fentanyl citrate 0.5, oxycodone HCl 8 mg/kg, head range (90-100)): 94.65%
effects on arterial blood pCO2 and oxygen saturation, drug alone (rats [2]; rats, sc, buprenorphine 0.05-3, oxycodone 3 & 8, hydromorphone 1-10, fentanyl 0.5-1.5 mg/kg): significant effects
effect of opioid alone on pCO2 (rats [2]; [4]): significant elevation
effect of opioid alone on sO2% (rats [2]; [4]): significant decrease
